In US20060058383A1 (priority 2004, published 2006):

Conditions: i.v.

Row | SMILES | toxicity in mice (5 mg/kg, three times per week, M/W/F) | acute toxicity in mice (nude mice 6 mg/kg i.p. daily for three days, C3H-Hej mice 10 mg/kg/day, daily for 5 days)
1 | O=C(O)O.O=C([O-])C(=O)CBr.[Na+] [S-Glycolycin, Sodium 3-bromo-2-oxopropionate carbonic acid] | No obvious toxicity | –
2 | CCCOC(=O)C(=O)CBr [Glycolycin, propyl 3-bromo-2-oxopropionate] | – | No obvious acute toxicity
